Earlier results as cited in patent publication US20250195714A1, “DEVICES AND METHODS OF TREATING WOUNDS” (University of Massachusetts, priority 2022, published 2025).

Test system: keratinocyte and fibroblast cell cultures
Details: prolonged exposure; cited from earlier work

Structure (SMILES): NC[C@H]1CC[C@H](C(=O)O)CC1 [TXA, tranexamic acid]
- cytotoxicity: can be cytotoxic
